Experimental data taken from US20080175847A1 (Genentech, published 2008).
Residue numbers refer to the chain shown, from its start. One block for each binder: values may come before it.

By UniProt entry, the sequences of proteins in these tests, tags left out. Where a name states a change or a piece, a line headed by the entry shows the natural chain unless it says otherwise. Residues count along the entry.
UniProt Q9JI71, 27-405 limits assumed: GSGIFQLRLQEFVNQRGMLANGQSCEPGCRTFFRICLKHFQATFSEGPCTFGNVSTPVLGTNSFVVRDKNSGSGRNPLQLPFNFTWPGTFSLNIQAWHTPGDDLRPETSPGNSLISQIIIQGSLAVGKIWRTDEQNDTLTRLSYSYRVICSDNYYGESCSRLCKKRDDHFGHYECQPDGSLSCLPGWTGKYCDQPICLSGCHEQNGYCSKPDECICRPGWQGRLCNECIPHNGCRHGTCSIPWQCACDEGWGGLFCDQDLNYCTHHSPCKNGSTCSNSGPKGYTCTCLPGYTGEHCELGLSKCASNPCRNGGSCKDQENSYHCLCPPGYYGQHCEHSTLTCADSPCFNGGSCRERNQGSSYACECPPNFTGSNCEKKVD
UniProt P02769, 25-607 limits assumed: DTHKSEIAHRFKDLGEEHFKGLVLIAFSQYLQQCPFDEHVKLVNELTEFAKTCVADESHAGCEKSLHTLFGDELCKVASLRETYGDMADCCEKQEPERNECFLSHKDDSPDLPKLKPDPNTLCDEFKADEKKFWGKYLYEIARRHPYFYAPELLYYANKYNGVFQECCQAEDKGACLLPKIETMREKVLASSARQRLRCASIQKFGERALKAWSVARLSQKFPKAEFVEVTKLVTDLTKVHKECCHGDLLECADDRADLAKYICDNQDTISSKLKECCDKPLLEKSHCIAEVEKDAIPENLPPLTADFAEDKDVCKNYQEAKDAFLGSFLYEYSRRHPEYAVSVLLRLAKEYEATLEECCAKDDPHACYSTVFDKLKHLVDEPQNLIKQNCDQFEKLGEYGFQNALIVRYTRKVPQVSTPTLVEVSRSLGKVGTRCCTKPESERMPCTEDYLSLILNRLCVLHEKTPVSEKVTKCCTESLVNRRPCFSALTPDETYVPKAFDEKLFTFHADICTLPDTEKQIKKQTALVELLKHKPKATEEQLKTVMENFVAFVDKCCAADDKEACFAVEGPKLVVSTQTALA
UniProt Q9NR61, 26-404 limits assumed: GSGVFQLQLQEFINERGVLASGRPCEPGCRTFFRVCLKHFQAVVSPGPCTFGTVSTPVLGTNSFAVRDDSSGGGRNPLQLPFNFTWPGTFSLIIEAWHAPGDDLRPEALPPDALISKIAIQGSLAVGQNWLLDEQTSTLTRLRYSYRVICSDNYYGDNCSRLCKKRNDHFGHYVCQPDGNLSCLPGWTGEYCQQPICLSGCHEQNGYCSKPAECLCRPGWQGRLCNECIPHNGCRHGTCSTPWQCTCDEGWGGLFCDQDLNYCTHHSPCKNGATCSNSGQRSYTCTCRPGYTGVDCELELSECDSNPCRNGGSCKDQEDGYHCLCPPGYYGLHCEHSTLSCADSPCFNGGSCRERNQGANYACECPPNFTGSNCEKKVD
UniProt P05187: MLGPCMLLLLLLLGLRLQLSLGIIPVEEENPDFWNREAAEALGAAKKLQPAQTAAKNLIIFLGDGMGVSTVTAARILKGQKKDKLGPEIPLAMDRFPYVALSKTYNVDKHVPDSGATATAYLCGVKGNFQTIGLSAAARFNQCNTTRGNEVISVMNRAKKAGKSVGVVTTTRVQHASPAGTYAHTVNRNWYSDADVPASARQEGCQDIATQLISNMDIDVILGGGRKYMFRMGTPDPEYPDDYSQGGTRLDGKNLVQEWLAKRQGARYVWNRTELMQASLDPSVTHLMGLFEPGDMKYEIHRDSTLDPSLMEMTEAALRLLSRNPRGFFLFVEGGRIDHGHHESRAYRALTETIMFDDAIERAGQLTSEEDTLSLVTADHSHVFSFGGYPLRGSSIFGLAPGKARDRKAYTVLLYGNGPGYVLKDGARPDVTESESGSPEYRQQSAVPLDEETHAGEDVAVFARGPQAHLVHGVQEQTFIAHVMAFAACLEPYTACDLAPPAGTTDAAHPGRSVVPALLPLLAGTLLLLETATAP

Assays:
[1] = molecular target: T1, His-tagged murine DLL4 (murine, UniProt Q9JI71 27-405, limits assumed); test: SPR BIAcore-3000, antibody coupled to CM5 chip, DLL4-His injected, 25 C
T1 construct: domain: ECD5.5; also called murine DLL4-His; murine Delta4 (ECD5.5); not shown: His tag
Procedure: To determine the binding affinity of the anti-DLL4 Mabs, surface plasmon resonance (SRP) measurement with a BIAcore™-3000 was used (BIAcore, Inc., Piscataway, N.J.). Briefly, carboxymethylated dextran biosensor chips (CM5, BIAcore Inc.) were activated with N-ethyl-N′-(3-dimethylaminopropyl)-carbodiimide hydrochloride (EDC) and N-hydroxysuccinimide (NHS) according to the supplier's instructions. […] Next, IM ethanolamine was injected to block unreacted groups. […] Association rates (kon) and dissociation rates (koff) were calculated using a simple one-to-one Langmuir binding model (BIAcore Evaluation Software version 3.2). The equilibrium dissociation constant (Kd) was calculated as the ratio koff/kon.

[2] = molecular target: T2, Jag1 on transiently transfected 293 cells (Homo sapiens (Human), UniProt P78504 34-1218); test: FACS of transiently transfected 293 cells, antibody at 2 µg/ml, goat anti-human IgG-PE [top panel]
T2 construct: also called Jag1 transfected cells

[3] = molecular target: T3, DLL1 on transiently transfected 293 cells (Homo sapiens (Human), UniProt O00548 18-723); test: as above
T3 construct: also called DLL1 transfected cells
T3 sequence: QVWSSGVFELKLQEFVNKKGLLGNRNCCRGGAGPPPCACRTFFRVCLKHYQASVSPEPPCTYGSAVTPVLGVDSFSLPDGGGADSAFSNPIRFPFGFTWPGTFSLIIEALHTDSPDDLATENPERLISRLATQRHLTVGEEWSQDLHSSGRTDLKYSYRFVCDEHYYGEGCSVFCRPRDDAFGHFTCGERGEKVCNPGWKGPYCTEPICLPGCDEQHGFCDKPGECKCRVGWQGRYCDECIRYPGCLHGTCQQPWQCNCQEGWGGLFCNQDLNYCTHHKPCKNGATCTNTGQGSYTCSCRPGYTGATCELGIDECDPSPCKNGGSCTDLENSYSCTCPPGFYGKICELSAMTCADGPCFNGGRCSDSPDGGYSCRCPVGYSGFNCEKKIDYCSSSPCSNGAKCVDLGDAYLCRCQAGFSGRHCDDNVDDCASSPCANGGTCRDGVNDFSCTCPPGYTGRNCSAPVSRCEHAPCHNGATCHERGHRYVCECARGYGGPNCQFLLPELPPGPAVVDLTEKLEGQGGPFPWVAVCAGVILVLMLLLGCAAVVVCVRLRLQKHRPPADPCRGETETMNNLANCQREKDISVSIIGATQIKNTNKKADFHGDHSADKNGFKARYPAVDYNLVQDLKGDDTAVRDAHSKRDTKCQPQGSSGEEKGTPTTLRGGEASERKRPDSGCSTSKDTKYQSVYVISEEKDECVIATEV

[4] = molecular target: T4, BSA (bovine, UniProt P02769); test: ELISA: coated recombinant protein, bound hIgG detected with anti-human antibody HRP, TMB, OD 450 nm
T4 construct: Negative control coat

[5] = molecular target: T5, ErbB2-ECD (HER2); test: as above
T5 construct: Coated on the ELISA plate as assay control; also called recombinant ErbB2-ECD

[6] = molecular target: T6, human DLL1 (purified recombinant protein coated on ELISA plate) (human, UniProt O00548 18-540, limits assumed); test: as above
T6 sequence (looked up): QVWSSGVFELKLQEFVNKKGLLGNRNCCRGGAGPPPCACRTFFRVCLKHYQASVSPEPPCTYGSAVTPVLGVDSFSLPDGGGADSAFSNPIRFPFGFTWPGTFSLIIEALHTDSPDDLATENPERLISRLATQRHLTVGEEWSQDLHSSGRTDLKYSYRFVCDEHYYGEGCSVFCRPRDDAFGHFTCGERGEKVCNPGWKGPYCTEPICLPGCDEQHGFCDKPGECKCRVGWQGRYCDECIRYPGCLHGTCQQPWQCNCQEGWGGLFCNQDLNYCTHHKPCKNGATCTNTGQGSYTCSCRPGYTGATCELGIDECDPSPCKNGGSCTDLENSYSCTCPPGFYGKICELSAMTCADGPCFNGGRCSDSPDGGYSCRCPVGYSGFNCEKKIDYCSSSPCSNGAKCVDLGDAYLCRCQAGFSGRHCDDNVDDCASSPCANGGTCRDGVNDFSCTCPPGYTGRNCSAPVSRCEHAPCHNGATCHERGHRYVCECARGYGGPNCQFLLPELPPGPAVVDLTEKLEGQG

[7] = molecular target: human JAG1 (purified recombinant protein coated on ELISA plate) (human, UniProt P78504 34-1046, limits assumed); test: as above
[8] = molecular target: T7, C-terminal His-tagged human DLL4 (amino acid 1-404) (human, UniProt Q9NR61 26-404); test: Blocking ELISA: antibody with purified DLL4-His, binding to coated rat Notch1-Fc, detected with mouse anti-His mAb, biotinylated goat anti-mouse, streptavidin-AP [lower panel]
T7 construct: range 26-404; the text calls it human DLL4-His; also called DLL4-His; human DLL4-His; not shown: C-terminal His tag

[9] = molecular target: T8, DLL4-AP (amino acid 1-404 of DLL4 fused to human placenta alkaline phosphatase) (human, UniProt P05187 23-511); test: blocking ELISA: antibody titrated, DLL4-AP binding to coated rrNotch1-Fc
T8 construct: Used as 293 cell conditioned medium; not shown: C-terminal human placenta alkaline phosphatase reporter and its junction

[10] = molecular target: T8, DLL4-AP (amino acid 1-404 of DLL4 fused …); test: Blocking ELISA: antibody preincubated with DLL4-AP conditioned medium, binding to coated rat Notch1-Fc (0.5 µg/ml), PNPP, OD 405 nm [upper panel]

- Kd [1]: 0.15 nM
B1: YW26.6 (antibody, V domains shown)
VH: EVQLVESGGGLVQPGGSLRLSCAASGFTFTDNWISWVRQAPGKGLEWVGLINPQSGSSDYADSVKGRFTISADTSKNTAYLQMNSLRAEDTAVYYCARDNFGGYFDYWGQGTLVTVSS
VL: DIQMTQSPSSLSASVGDRVTITCRASQDVSTAVAWYQQKPGKAPKLLIYSASFLYSGVPSRFSGSGSGTDFTLTISSLQPEDFATYYCQQSYTGQSTFGQGTKVEIK
notes: Only the six HVRs are tied to the clone; also called clone 152.26.6

- Kd [1]: 0.3 nM
- koff [1]: 0.0001 s⁻¹
- kon [1]: 330000 M⁻¹ s⁻¹
B2: YW26.20 (antibody, V domains shown)
VH: B1 VH with L50V, Q54N, S57A, S58T, D59E
VL: B1 VL with T93N, Q95P

- binding result [2]: no binding (tested: 2 µg/ml)
- binding result [3]: no binding (tested: 2 µg/ml)
- binding result [4]: no binding (tested: 50 µg/ml)
- binding result [5]: no binding (tested: 50 µg/ml)
- binding result [6]: no binding (tested: 50 µg/ml)
- binding result [7]: no binding (tested: 50 µg/ml)
- IC50 (read off the curve) [8]: ~1 µg/mL
- IC50 [9]: ~12 nM
- Kd [1]: 0.09 nM
- IC50 (read off the curve) [10]: ~2 µg/mL
B3: anti-DLL4 Mab YW26.82 (antibody, V domains shown)
VH: B1 VH with L50Y, N52S, Q54N, S57F, S58T, D59Y
VL: B1 VL with Q95T, S96V
